The results in this text go back to BindingDB's records for doi:10.1007/s00210-001-0505-y (Institut De Recherches Servier, 2002).

Chains of the proteins cited; added tags and fusions are not shown. Lines headed by an entry give the natural chain unless they say otherwise; changes in a name come on top.
UniProt P28335: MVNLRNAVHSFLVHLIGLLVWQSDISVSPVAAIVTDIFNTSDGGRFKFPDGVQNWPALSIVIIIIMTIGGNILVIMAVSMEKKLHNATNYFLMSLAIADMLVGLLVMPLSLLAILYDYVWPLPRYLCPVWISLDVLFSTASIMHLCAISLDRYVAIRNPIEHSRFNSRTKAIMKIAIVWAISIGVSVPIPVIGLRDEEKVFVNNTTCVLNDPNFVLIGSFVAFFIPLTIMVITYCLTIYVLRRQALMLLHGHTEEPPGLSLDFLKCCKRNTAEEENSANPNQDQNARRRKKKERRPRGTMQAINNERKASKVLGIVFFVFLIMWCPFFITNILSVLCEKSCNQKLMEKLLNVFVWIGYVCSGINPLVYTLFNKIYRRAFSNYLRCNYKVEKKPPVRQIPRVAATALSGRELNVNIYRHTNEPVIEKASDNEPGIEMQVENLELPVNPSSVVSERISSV

Each structure is given as a SMILES string.

As a reminder, the Ki is a measure of affinity in units of concentration, obtained from inhibition or displacement.

For the assay, the target named is 5-hydroxytryptamine receptor 2C (Homo sapiens, UniProt P28335).
As for `Cc1cc(NC(=O)Nc2ccc3c(ccn3C)c2)sn1` [CAS_3277600], the Ki turned out to be 2140 nM. For `CN1C[C@@H](NS(=O)(=O)N(C)C)C[C@@H]2c3cccc4c3c(cn4C)C[C@H]21` [MESULERGINE] the value was 1.12 nM. Take `Cn1ccc2cc3c(cc21)CCN3C(=O)Nc1cccnc1`: the inhibition constant (Ki) is 3.16 nM.
